Experimental data published in publication PMC2094074 (Nucleic Acids Research, 2007).

Columns and labels:
[1] = target: T1, human Rad9-Rad1-Hus1 complex (human 9-1-1 complex) (human, UniProt Q99638 1-391; O60671 1-282; O60921 1-280); assay: pull-down
T1 sequence (looked up) 1: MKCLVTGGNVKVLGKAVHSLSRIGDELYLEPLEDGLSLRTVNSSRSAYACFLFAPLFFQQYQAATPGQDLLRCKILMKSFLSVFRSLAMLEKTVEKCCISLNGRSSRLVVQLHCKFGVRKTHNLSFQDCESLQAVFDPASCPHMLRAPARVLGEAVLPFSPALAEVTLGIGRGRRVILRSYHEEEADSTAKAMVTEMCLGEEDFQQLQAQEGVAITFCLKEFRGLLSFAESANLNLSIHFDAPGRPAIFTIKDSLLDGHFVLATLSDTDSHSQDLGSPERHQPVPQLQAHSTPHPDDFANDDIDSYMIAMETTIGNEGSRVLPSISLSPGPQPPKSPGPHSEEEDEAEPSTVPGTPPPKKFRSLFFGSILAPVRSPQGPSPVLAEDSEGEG
T1 sequence (looked up) 2: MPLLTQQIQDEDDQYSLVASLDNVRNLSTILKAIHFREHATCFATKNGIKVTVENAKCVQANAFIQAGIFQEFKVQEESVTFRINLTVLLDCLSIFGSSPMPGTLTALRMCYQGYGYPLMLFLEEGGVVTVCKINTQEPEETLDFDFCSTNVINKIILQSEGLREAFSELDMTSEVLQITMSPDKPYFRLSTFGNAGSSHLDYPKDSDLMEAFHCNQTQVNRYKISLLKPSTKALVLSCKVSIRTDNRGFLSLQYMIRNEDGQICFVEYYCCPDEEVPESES
T1 sequence (looked up) 3: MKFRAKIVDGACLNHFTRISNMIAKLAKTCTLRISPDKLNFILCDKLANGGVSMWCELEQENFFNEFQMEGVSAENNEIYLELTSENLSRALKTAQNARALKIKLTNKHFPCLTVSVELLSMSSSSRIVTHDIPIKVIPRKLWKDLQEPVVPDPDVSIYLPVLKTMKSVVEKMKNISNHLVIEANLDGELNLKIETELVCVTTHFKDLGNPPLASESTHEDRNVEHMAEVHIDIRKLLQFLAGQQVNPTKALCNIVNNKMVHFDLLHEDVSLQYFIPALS

[2] = target: T2, Schizosaccharomyces pombe Rad9-Rad1-Hus1 complex (S. pombe 9-1-1 complex) (Schizosaccharomyces pombe, UniProt P26306 1-426; P22193 1-323; P78955 1-287); assay: pull-down
T2 sequence (looked up) 1: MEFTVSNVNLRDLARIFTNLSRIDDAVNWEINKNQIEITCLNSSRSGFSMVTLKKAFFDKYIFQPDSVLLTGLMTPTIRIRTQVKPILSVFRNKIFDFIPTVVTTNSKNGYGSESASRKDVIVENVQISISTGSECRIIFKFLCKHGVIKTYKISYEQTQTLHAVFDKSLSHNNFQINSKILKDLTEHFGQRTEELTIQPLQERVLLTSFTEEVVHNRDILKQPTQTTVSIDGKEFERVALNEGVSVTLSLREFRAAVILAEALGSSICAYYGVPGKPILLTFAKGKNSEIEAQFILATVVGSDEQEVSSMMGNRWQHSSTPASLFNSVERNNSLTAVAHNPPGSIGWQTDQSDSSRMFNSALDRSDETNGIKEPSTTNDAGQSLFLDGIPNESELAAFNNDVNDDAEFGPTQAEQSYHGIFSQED
T2 sequence (looked up) 2: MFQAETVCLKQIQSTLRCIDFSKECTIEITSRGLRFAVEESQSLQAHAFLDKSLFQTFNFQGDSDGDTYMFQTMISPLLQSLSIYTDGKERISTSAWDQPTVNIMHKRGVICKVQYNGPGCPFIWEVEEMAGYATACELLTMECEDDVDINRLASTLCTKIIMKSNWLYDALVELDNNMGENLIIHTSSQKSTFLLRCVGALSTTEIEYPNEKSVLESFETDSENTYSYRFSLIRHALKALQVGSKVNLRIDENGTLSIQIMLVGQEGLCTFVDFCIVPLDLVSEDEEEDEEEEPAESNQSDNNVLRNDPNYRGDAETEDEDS
T2 sequence (looked up) 3: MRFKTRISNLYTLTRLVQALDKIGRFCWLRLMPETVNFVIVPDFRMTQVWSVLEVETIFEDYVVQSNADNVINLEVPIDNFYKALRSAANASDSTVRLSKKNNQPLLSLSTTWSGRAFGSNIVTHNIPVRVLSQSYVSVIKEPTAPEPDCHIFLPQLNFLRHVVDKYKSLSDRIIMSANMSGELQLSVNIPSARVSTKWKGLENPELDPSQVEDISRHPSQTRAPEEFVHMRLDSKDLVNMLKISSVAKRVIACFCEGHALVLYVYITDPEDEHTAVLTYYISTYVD

B1: GST-hTDG (full length) (enzyme, human, UniProt Q13569 1-410, looked up)
chain: MEAENAGSYSLQQAQAFYTFPFQQLMAEAPNMAVVNEQQMPEEVPAPAPAQEPVQEAPKGRKRKPRTTEPKQPVEPKKPVESKKSGKSAKSKEKQEKITDTFKVKRKVDRFNGVSEAELLTKTLPDILTFNLDIVIIGINPGLMAAYKGHHYPGPGNHFWKCLFMSGLSEVQLNHMDDHTLPGKYGIGFTNMVERTTPGSKDLSSKEFREGGRILVQKLQKYQPRIAVFNGKCIYEIFSKEVFGVKVKNLEFGLQPHKIPDTETLCYVMPSSSARCAQFPRAQDKVHYYIKLKDLRDQLKGIERNMDVQEVQYTFDLQLAQEDAKKMAVKEEKYDPGYEAAYGGAYGENPCSSEPCGFSSNGLIESVELRGESAFSGIPNGQWMTQSFTDQIPSFSNHCGTQEQEEESHA
Does B1 bind [1]?
Result: binds

Does B1 bind [2]?
Result: binds
